From ChEMBL document CHEMBL1157769, “Synthesis and opioid activity of novel 6-substituted-6-demethoxy-ethenomorphinans” (2010)

Amino acid sequences for entries named in this document (tags omitted).
UniProt P33533, whole entry: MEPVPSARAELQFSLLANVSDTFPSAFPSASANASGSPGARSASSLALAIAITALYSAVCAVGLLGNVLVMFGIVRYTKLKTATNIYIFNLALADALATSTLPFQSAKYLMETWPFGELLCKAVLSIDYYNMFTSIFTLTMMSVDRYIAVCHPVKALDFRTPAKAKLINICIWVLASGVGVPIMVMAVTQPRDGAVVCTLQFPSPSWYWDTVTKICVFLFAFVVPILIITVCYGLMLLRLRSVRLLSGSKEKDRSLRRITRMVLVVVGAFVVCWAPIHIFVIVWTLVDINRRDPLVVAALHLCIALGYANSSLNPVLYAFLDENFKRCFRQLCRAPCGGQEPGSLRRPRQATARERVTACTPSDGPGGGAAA

Target: Delta-type opioid receptor (Rattus norvegicus, UniProt P33533)
Assay: Displacement of [3H]deltorphin-2 from delta opioid receptor from Wistar rat brain by liquid scintillation counting

CO[C@]12C=C[C@@]3(C[C@@H]1C(C)(C)C)[C@H]1Cc4ccc(O)c5c4[C@@]3(CCN1C)[C@H]2O5
IC50: 1350 nM
